US20240316176A1

Biological target: native S domain protein with the hinge of GII.4 NoV strain VA387 (GST removed by thrombin) (norovirus GII.4 strain VA387)
Assay: gel filtration, self-assembly

native S domain protein with the hinge of GII.4 NoV strain VA387 (GST removed by thrombin)
portion of the protein in the particle/complex peak: < 25%
